Experimental data taken from patent publication US11583516B2, “Dash inhibitors, and uses related thereto” (Trustees of Tufts College, priority 2016, dated 2023).

Key:
Type in all cases: cell-based
[1] = test system: RAW 264.7 WT cells; assay: Pyroptosis IC50 in cells
[2] = test system: MV4;11 cells; assay: Cell line drug sensitivity (CellTiter-Glo); conditions: MV4;11, AML M5; 48 h
Method: (§1) SET-2, RS4;11, and SKM-1 cells were purchased from DSMZ. HL-60, MV4;11, OCI-AML2, NB4, MOLM-13, NOMO-1, DAOY, HEL, IMR-5, K562, Kasumi-1, ONS-76, RDES-1, and TC-71 cells were a gift from Alex Kentsis and verified using STR genotyping (Genetica). […] MCF-7, Jurkat, THP-1, U937, HL-60, MV4;11, OCI-AML2, NB4, MOLM-13, NOMO-1, HEL, K562, SET-2, RS4;11, SKM-1 and Kasumi-1 were grown in RPMI-1640 medium with 10% FBS. All cells were grown at 37° C. in a 5% CO2 incubator. Cell lines were tested for mycoplasma using the MycoAlert Mycoplasma Detection Kit (Lonza).
(§2) Cells were plated (2000 cells/well) in white, 384-well clear bottom plates using an EL406 Microplate Washer/Dispenser (BioTek) in 25 μL final volume of media. Compounds were added using a pintool (CyBio) and cells were incubated for 48 h at 37° C. Assay plates were then removed from the incubator and allowed to equilibrate to room temperature on the bench top before addition of 10 μL of CellTiter-Glo reagent (Promega) according to the manufacturer's instructions. Assay plates were shaken on an orbital shaker for 2 minutes and incubated at room temperature on the bench top for 10 minutes. Luminescence was then read using a Cytation 5 Cell Imaging Multi-Mode Reader (BioTek). (FIG. 6)

[3] = test system: NB4 cells; assay: Cell line drug sensitivity (CellTiter-Glo); conditions: NB4, AML/APL M3; 48 h
Method: as §1, §2

Measured: IC50

CC(C)(C)[C@H](N)C(=O)N1CCC[C@H]1B(O)O [ARI-4175, t-butylglycine-boroProline]
14 nM: all assays above
